Literature values in patent US9243032B2, “Compositions for treatment of neurodegenerative diseases” (Ramot at Tel-Aviv University Ltd., priority 2009, dated 2016).

Molecular target: alpha-synuclein (Homo sapiens, UniProt P37840)
Conditions: in vitro; Hashimoto et al., Neuron 2001; cited from earlier work

For “beta-synuclein: protein product of SNCB gene, 134 amino acids”, the “inhibition of aggregation of alpha-synuclein” value is given as “inhibit the aggregation of alpha-synuclein in a dose-dependent manner”.
